Measurements taken from PubChem BioAssay AID651558 (National Center for Advancing Translational Sciences (NCATS), 2012).
Only a part is listed here, and it is no random draw. Results filed as inconclusive are left out. The source made the active and inactive calls. Calls come from the whole dose curve; as a rule, active = well fitted inhibition curve with a large enough effect; inconclusive = small, poorly fitted or top-dose-only effect; inactive = no such curve, though single readings can be large or run the other way.
% is set by controls: 0 for no effect and ±100 for the full control effect.

Experiment: qHTS Assay to Find Inhibitors of Chronic Active B-Cell Receptor Signaling: Hit Validation in Primary Screen; note: nearly all actives have a fitted effect of over 75% in size
Details: ABC-DLBCL IkB-luc/CBR ratio luminescence, 4 h; at 46.1 µM (top of the series)
Description: Diffuse large B-cell lymphoma (DLBCL) is the most common category of non-Hodgkin lymphoma, with ~20,000 new cases per year in the United States. DLBCL should be regarded as a collection of different neoplasms. Microarray gene expression analysis has defined two principal types of DLBCL, named for their similarity to normal B cell stages or activation states: a germinal center B-cell (GCB) type, and an activated B-cell (ABC) type. In ABC-DLBCL, a constitutive high-level activity of the NF-kappaB family of transcription factors has been observed (1) and NF-kappaB target genes are more highly expressed in ABC primary tumors than in GCB tumors. […] Following the addition of doxycycline to induce expression of the luciferases, the green luminescence in control cultures rises only slowly because the CBG fusion partner IkappaBalpha is targeted by IKK activity for rapid degradation. In contrast, green luminescence rises rapidly in the presence of proteasome inhibitors or IKK inhibitors. The rise in red luminescence of CBR is not affected by proteasome or IKK inhibitors, and serves as normalization for cell number and nonspecific effects. […]
Cells were seeded in 1536-well plates at 5000 cells/4uL in IMDM medium containing 0.5% FBS, w/o phenol red, 1% penicillin/streptomycin. […] The %Activity was determined from the ratio of corrected green/red luminescent values. […]
With `COc1ccc(C2=NCC(CBr)S2)cc1` (stereo unspecified) the activity change, negative = inhibition was inactive: 37.5%.
